Source: PMC6111440, “Cyclin-Dependent Kinase (CDK) Inhibitors: Structure–Activity Relationships and Insights into the CDK-2 Selectivity of 6-Substituted 2-Arylaminopurines” (Journal of Medicinal Chemistry, 2016)

Sequences of proteins named here, by UniProt entry; tags and fusion partners are left off. A change or cut given only in a name is not applied to a line headed by its entry.
UniProt P06493, whole entry: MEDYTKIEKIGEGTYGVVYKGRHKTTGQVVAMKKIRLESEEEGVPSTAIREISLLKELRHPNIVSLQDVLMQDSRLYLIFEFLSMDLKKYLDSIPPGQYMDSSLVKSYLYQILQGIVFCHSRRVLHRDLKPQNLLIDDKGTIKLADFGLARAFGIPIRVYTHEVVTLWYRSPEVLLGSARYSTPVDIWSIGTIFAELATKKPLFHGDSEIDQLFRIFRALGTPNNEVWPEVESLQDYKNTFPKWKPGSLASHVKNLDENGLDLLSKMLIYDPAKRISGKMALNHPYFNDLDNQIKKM
UniProt P11802: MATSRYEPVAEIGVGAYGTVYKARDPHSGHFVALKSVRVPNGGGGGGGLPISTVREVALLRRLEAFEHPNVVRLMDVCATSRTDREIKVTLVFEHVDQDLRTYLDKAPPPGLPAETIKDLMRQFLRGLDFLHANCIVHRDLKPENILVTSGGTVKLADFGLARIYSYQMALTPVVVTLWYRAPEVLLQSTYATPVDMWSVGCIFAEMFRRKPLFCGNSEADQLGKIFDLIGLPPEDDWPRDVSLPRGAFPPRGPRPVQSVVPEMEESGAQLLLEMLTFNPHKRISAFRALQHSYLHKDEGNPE
UniProt Q00535, whole entry, species assumed: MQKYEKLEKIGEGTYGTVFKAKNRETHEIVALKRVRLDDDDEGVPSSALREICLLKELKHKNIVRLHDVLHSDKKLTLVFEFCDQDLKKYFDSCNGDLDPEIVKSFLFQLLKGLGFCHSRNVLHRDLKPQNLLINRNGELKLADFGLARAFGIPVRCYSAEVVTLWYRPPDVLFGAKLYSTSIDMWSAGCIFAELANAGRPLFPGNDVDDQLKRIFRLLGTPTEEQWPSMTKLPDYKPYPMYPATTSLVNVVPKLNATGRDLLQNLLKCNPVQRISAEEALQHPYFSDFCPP
UniProt P50613: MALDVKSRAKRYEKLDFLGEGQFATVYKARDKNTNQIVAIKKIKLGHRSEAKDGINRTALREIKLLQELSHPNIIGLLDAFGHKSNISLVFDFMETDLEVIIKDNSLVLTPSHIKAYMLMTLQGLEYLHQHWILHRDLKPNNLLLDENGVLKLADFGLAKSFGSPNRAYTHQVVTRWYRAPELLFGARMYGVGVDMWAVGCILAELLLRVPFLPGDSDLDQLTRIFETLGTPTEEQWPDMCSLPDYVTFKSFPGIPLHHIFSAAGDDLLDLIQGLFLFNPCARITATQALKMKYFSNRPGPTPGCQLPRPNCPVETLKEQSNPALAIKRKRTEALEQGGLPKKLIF
UniProt P50750, whole entry: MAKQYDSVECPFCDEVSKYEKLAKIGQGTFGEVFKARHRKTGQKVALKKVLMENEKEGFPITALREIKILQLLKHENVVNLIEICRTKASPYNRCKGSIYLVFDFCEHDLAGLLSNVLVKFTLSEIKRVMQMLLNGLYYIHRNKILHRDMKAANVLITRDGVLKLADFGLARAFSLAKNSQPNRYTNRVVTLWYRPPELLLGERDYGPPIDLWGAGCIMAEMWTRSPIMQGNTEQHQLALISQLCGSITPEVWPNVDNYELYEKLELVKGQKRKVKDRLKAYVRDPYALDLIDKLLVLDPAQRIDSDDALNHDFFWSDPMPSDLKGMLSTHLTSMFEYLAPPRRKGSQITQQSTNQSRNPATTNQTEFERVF

Tests used:
CDK2/A = CDK2/A (Homo sapiens, UniProt P24941); conditions: read-out: CDK2 Inhibitory Activity IC50; Table 3
Human CDK1/B = Human CDK1/B (Homo sapiens, UniProt P06493); conditions: read-out: CDK1 Inhibitory Activity IC50; Table 3
[1] = cited from earlier work
CDK4/D = CDK4/D (Homo sapiens, UniProt P11802); assay: biochemical; conditions: read-out: CDK4 Inhibition at 10 μM (%)
CDK5 = CDK5 (Homo sapiens, UniProt Q00535); conditions: read-out: CDK5 Inhibitory Activity IC50; Table 3
CDK7/H = CDK7/H (Homo sapiens, UniProt P50613); assay: biochemical; conditions: read-out: CDK7 Inhibition at 10 μM (%)
CDK9/T = CDK9/T (Homo sapiens, UniProt P50750); assay: biochemical; conditions: read-out: CDK9 Inhibition at 10 μM (%)

NS(=O)(=O)c1ccc(Nc2nc(OCC3CCCCC3)c3cn[nH]c3n2)cc1 [Compound 91, 4-((4-(Cyclohexylmethoxy)-1H-pyrazolo[3,4-d]pyrimidin-6-yl)amino)benzenesulfonamide]
IC50 (CDK2/A): 0.018 ± 0.001 µM | IC50 (Human CDK1/B): 1.6 ± 0.2 µM

COc1nc(N)nc2nc[nH]c12 [2-amino-6-methoxypurine]
chemical stability [1]: relatively poor chemical stability

Nc1nc(OCC2CCCCC2)c2nc[nH]c2n1 [Compound 1, 2-amino-6-cyclohexylmethoxypurine, reference compound]
inhibition at 10 µM (CDK4/D): 33% | IC50 (CDK5): 97 ± 3 µM | inhibition at 10 µM (CDK7/H): 44% | inhibition at 10 µM (CDK9/T): 42%
